US12171806B2, “Therapeutic regimens and methods for lowering blood glucose and/or body weight using GLP-1R and GCGR balanced agonists” (priority 2021, dated 2024)

Amino acid sequences for entries named in this document (tags omitted). Residues count along the entry.
UniProt P43220, 24-463: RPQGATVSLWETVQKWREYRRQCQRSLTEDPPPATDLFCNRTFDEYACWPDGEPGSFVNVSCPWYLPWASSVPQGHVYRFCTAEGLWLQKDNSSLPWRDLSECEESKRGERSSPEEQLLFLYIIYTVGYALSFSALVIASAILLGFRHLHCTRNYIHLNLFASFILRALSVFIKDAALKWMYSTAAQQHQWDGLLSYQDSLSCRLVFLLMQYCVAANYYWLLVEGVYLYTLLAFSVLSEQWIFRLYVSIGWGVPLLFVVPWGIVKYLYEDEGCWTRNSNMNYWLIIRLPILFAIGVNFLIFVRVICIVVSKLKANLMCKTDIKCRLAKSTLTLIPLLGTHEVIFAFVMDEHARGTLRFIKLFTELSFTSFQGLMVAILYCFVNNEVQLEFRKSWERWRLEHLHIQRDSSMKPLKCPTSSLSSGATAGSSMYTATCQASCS

Target: GLP-1 (human, cloned into CHO cells) receptor (Homo sapiens, UniProt P43220)

CC[C@H](C)[C@H](NC(=O)[C@H](Cc1ccccc1)NC(=O)[C@H](CCC(=O)O)NC(=O)[C@@H]1CCCCNC(=O)CC[C@H](NC(=O)[C@H](CC(=O)O)NC(=O)[C@H](CC(C)C)NC(=O)[C@H](Cc2ccc(O)cc2)NC(=O)[C@H](CCCCN)NC(=O)[C@H](CO)NC(=O)[C@H](Cc2ccc(O)cc2)NC(=O)[C@H](CC(=O)O)NC(=O)[C@H](CO)NC(=O)[C@@H](NC(=O)[C@H](Cc2ccccc2)NC(=O)[C@@H](NC(=O)CNC(=O)[C@H](CCC(N)=O)NC(=O)C(C)(C)NC(=O)[C@@H](N)Cc2c[nH]cn2)[C@@H](C)O)[C@@H](C)O)C(=O)N[C@@H](CCC(N)=O)C(=O)N[C@@H](C)C(=O)N[C@@H](C)C(=O)N1)C(=O)N[C@@H](CCCCNC(=O)[C@H]1O[C@@H](OCCCCCCCCCCCCCCCCCC(=O)O)[C@H](O)[C@@H](O)[C@@H]1O)C(=O)N[C@@H](Cc1c[nH]c2ccccc12)C(=O)N[C@@H](CC(C)C)C(=O)N[C@@H](CC(C)C)C(=O)N[C@@H](CCC(N)=O)C(=O)N[C@H](C(N)=O)[C@@H](C)O [EU-A1872]
Ovalbumin vs. BSA-fold improv/worsen, GLP-1 R: 30 fold
